Data set [1] is filed under the species Homo sapiens. The experiment in a line: Selectivity ratio of IC50 for human PLD1 to IC50 for human GST-tagged PLD2A.
For data set [2], the target named is T1, Phospholipase D1 (Homo sapiens, UniProt Q13393).
T1 sequence (Q13393 whole entry): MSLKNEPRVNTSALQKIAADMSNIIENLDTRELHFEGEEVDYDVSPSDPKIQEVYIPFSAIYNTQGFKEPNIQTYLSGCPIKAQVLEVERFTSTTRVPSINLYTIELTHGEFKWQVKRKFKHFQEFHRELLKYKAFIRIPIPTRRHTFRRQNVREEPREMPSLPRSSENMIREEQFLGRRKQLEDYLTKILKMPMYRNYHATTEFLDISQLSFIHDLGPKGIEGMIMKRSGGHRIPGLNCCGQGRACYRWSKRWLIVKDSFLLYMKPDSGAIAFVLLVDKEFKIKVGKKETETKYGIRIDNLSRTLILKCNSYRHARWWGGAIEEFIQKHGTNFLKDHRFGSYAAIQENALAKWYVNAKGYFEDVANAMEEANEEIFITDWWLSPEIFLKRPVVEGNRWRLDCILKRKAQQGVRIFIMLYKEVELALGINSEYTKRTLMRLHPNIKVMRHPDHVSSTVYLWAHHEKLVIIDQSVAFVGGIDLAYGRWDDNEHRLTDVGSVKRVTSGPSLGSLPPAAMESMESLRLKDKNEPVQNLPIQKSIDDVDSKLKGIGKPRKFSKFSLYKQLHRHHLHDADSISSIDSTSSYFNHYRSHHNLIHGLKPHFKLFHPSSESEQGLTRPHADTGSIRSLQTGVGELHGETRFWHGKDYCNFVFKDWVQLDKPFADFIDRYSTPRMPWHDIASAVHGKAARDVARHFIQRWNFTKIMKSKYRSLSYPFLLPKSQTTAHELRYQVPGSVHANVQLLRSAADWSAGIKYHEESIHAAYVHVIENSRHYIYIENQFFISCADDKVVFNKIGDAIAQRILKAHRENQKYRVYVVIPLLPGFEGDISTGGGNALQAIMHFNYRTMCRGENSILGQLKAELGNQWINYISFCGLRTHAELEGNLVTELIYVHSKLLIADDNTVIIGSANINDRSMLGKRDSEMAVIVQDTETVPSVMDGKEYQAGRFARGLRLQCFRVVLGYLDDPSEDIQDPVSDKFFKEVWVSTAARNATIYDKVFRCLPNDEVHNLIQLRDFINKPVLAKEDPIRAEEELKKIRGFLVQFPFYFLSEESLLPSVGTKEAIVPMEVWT

Data set [3] is described as follows: in vivo. The following applies: Sprague-Dawley, rat, iv, 1 mg/kg.
Data set [4] in a line: in vivo. Particulars: Sprague-Dawley, rat, iv, 1 mg/kg. This is another data set of the same source.

In the case of `O=C(NCCN1CCC2(CC1)C(=O)NCN2c1ccccc1)c1ccc2ccccc2c1`, the Selectivity ratio in data set [1] was determined as 9.

Turning to `O=C(NCCN1CCC2(CC1)C(=O)NCN2c1cccc(F)c1)c1ccc(F)cc1`, the Selectivity ratio in data set [1] came to 1.8. Besides, the midpoint of inhibition in data set [2], the IC50, lay at 12 µM.

In the case of `O=C(NCCN1CCC2(CC1)C(=O)NCN2c1cccc(F)c1)c1ccc2ccccc2c1`, the clearance in data set [3] was 61.5 mL/min/kg. Besides, the Vd in data set [4] was 8.1 L/kg.

Turning to `C[C@@H](CN1CCC2(CC1)C(=O)NCN2c1ccccc1)NC(=O)c1ccc2ccccc2c1`, the Selectivity ratio in data set [1] turned out to be 40.

The record behind these values is ChEMBL document CHEMBL1250519, “Design, synthesis, and biological evaluation of halogenated N-(2-(4-oxo-1-phenyl-1,3,8-triazaspiro[4.5]decan-8-yl)ethyl)benzamides: discovery of an isoform-selective small molecule phospholipase D2 inhibitor” (J Med Chem, 2010).
